Drawing on ChEMBL document CHEMBL2375342, “Novel 5-(benzyloxy)pyridin-2(1H)-one derivatives as potent c-Met inhibitors” (Bioorg Med Chem Lett, 2013), this text covers Ratio IC50 for one compound.

Some results are limits rather than exact numbers.

The species named for assay [1] is Homo sapiens. As to the kind of experiment: Selectivity ratio of IC50 for ABL (unknown origin) to IC50 for c-MET (unknown origin).
Assay [2] is filed under the species Homo sapiens. Description: Selectivity ratio of IC50 for RON (unknown origin) to IC50 for c-MET (unknown origin).

On to `C[C@@H](Oc1c[nH]c(=O)c(C(=O)Nc2ccc(N3CCN(C)CC3)cc2)c1)c1c(Cl)ccc(F)c1Cl`, for which the Ratio IC50 in the assay filed under Homo sapiens [1] and in the assay listed under Homo sapiens [2] was > 20 in each case.
